# Experiments:
# [1] = system: TNBC cells (MDA-MB-231, MDA-MB-436, MDA-MB-157); assay: In vitro nanoparticle binding of FITC-labeled probes by flow cytometry; assay type: cell-based, human
# Procedure: FTIC conjugated ICAM-IOs, or IGG-IOs, or HER2-IOs (ICAM-IO-FITC, or IGG-IO-FITC, or HER2-FITC-IO) were prepared to evaluate their in vitro TNBC targeting by flow cytometry. FITC was first conjugated to the casein coated on CNIOs according to FITC manufacturer's protocol. Then obtained FITC-CNIOs were conjugated with IGG, or HER2 antibody or ICAM-1 antibody as described in JCAM-IO synthesis.
# Quantitative analysis of ICAM-IO-FITC binding to TNBCs (MDA-MB-231, MDA-MB-436, MDA-MB-157) were conducted using flow cytometry. Non-TNBCs (MCF7, HCC1500, MDA-MB-361, and SKBR3) and non-neoplastic cells (AG11132 and MCF10A) were selected as controls. Cells were seeded in 6-well plates (3×10^5 cells/well) and allowed to adhere overnight. Then cells were incubated for 4 h at 37° C. with (1) IGG- IO-FITC, (2) HER2-IO-FITC, and (3) ICAM-1-IO-FITC. The nanoparticle concentration used was 100 μg/mL. All nanoparticle treated cells were washed with PBS, harvested using a 0.25% trypsin/2.6 mM EDTA solution, and washed with PBS (pH 7.4) three times. Binding data were acquired using a BD FACSCalibur flow cytometer and analyzed using FlowJo software. The increase binding value was calculated by dividing the mean fluorescence intensity of HER2-1-FITC, or ICAM-1-IO-FITC stained cells by that of the non-specific IGG-IO-FITC stained cells.
# MDA-MB-231 TNBC tumor [2] = assay: Biodistribution and tumor iron accumulation (phenanthroline colorimetric method) and tumor histology; assay type: in vivo, nude mice; details: TNBC tumor sections from treated mice
# Procedure: The biodistribution and tumor accumulation of MRI probes were evaluated. […] Correlating with the in vivo MRI results, the iron accumulation of ICAM-IOs in TNBC tumors was 3.7- and 2.1-fold higher than that of IGG-IOs and HER2-IOs with reference to untreated tumors, respectively (FIG. 4C inset). To further confirm the targeting of ICAM-IOs to the tumor, the in vivo MRI results were corroborated with histology. TNBC tumor sections were stained with ICAM-1 antibody, HER2 antibody, hematoxylin and eosin (H&E), and Prussian blue. […] In contrast, Prussian blue staining was low in tumors receiving IGG-IOs or HER2-IOs.
# Subcutaneous breast tumors were established by injecting 5×10^6 MDA-MB-231 cells into the fourth mammary fat pad of Nude mice (Charles River, Wilmington, MA) with n=5 for each group. […] Images were obtained at pre- and 24 h post-injection using a 3 T MRI scanner (Siemens Healthcare (Malvern, PA, USA) with fast spin echo and multi-TE sequence for T2-weighted MRI. The imaging parameters included: TR of 3200 ms, TE of 86 ms, matrix of 320×128, field of view (FOV) of 120×60 mm2, flip angle of 150°, and slice thickness of 1.00 mm for T2-weighted imaging; TR of 3710 ms and 20 different TEs, starting at 12 ms with increments of 12 ms for multi-TE imaging. To quantity the signal intensity for tumor, ROIs were drawn around the whole tumor at the same slice with the same imaging depth. […]
# MDA-MB-231 TNBC tumor [3] = assay: In vivo MRI of xenograft TNBC mouse model; design: species or system nude mice; details: 24 h after intravenous administration, 20 mg Fe/kg, T2-weighted MRI, MDA-MB-231 xenograft
# Procedure: The ability of ICAM-IOs for targeted imaging of T NBC tumors in vivo were examined by MR imaging using a xenograft TNBC mouse model. MDA-MB-231 cells were subcutaneously implanted in immunodeficient nude mice. MRI was performed on three groups of tumor bearing mice intravenously injected with IGG-IO, HER2-IO, or ICAM-IO when tumors reached 1 cm^3 in volume. Each group was scanned at pre-injection and 24 h and 48 h post-injection with a set of MRI sequences, including T1, T2-weighted spin echo imaging, and T2 relaxometry. T2 weighted MR images presented in FIG. 4A show decreased signals in the regions of the tumor as the result of enhanced T2 contrast from uptake of IO probes in tumors.
# Subcutaneous breast tumors were established by injecting 5×10^6 MDA-MB-231 cells into the fourth mammary fat pad of Nude mice (Charles River, Wilmington, MA) with n=5 for each group. Tumors were well developed for 5-7 weeks until the tumors were at least 200 mm3 in volume. In vivo MRI was performed on the tumor-bearing mice in three groups, which injected intravenously with IGG-IO, HER2-IO and ICAM-IO (at the dosage of 20 mg Fe/kg mouse weight), respectively. […] The pixel intensity was calculated and normalized to the area of ROIs by ImageJ software. […]
substance,measurement,setting,value
"HER2-IOs: casein coated iron oxide nanoparticles conjugated with Herceptin (humanized anti-HER2 antibody), control",targeting of TNBC cells,[1],failed to target TNBCs
same,Prussian blue staining of IOs in tumor sections,MDA-MB-231 TNBC tumor [2],low
same,MRI signal drop in tumor,MDA-MB-231 TNBC tumor [3],17%
